Bioassay records (PubChem BioAssay)
uPA generation: cell surface uPA generation inhibition. actives 0.31% (n = 330,000). cell surface uPA generation assay, qHTS. Potency, µM (titrated, usually from 38.3 µM), usual class: inhibitors; active = well fitted inhibition curve with a large enough effect; inconclusive = small, poorly fitted or top-dose-only effect; inactive = no such curve, though single readings can be large or run the other way; tested in mouse RAW 264.7 cells; also: nearly all actives have a fitted effect of over 55% in size
TDP1 cell CPT: growth inhibition of DT40 Tdp1-/-;hTDP1 cells with camptothecin (screen for TDP1 inhibitors) | Potency, µM (titrated, usually from 46.2 µM), actives largely listed as inhibitors | chicken DT40 Tdp1-/-;hTDP1 cells + 20 nM CPT, ATP luminescence, 48 h | AID 686979 | actives 12% (n = 420,000); also: nearly all actives have a fitted effect of over 55% in size
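Chicken DT40 Tdp1-/- cells stably complemented with human TDP1 were seeded at 400 cells/well in medium containing 20 nM camptothecin, exposed to pin-transferred compounds, and grown at 37 °C for at least 48 hr. Viability was read as ATP luminescence.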
TDP1 block: TDP1 (human) enzyme inhibition; recombinant TDP1, AlphaScreen DNA substrate cleavage; actives 0.28% (n = 350,000); Potency, µM (series often up to 130 µM), most hits filed as inhibitors; AID 485290; Q9NUW8; also: nearly all actives have a fitted effect of over 40% in size
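Tdp1 1 nM final; 15 min RT w/ cpd; substrate 15 nM, 5 min; beads 10 ug/ml, 10 min; AlphaScreen read. Neg ctrl: no enzyme.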
miR-21 reporter: miR-21 reporter, rising signal; Potency, µM (titrated, usually from 38.3 µM); AID 2288; 340,000 tested, under 10 active; HeLa miR-21 FLuc reporter, luciferase, 48 h; active = well fitted rising curve with a large enough effect; inconclusive = small, poorly fitted or top-dose-only effect; inactive = no such curve, though single readings can be large or run the other way;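 note: miR-21 action dims this reporter so a rising signal means less miR-21 action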
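HeLa miR-21-FLuc reporter line, endogenous miR-21; 2000 cells/well in DMEM/10% FBS; compound titration up to ~40uM final, 48 h, 37 degree Celsius; luciferase detection reagent, 15 min lysis, CCD luminescence.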
DT40 TDP1 no CPT: qHTS for Inhibitors of human tyrosyl-DNA phosphodiesterase 1 (TDP1): qHTS in cells in absence of CPT; actives 15% (n = 420,000); Potency, µM (highest dose often 46.2 µM), usual class: inhibitors; DT40 Tdp1-/- hTDP1 cells, no CPT, ATP luminescence, 48 h; also: nearly all actives have a fitted effect of over 55% in size
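Compound effects on proliferation are scored in DT40 Tdp1-/-;hTDP1 cells in the absence of CPT. ATP levels (CellTiter-Glo luminescence) are recorded after a ≥48 hr, 37 °C incubation.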
Of the large screens only hits and unclear results are named; the others gave an inactive call. Rows were chosen to be rich in hits. Some 16% of all compounds tested hit in one or more screens of this group. Unless noted, calls follow the shape of the dose curve; as a rule, active = well fitted curve in the direction sought with a large enough effect; inconclusive = small, poorly fitted or top-dose-only effect, or another doubt; inactive = no such curve, though single readings can be large; an effect the other way counts as inactive or inconclusive.

COc1ccc(NC(=O)CN2CCN(c3ccccn3)CC2)cc1Cl	none (no result: TDP1 block)
O=C(CN1CCN(c2ccccn2)CC1)N(c1ccccc1)c1ccc2ccccc2c1	TDP1 cell CPT 16µM, DT40 TDP1 no CPT 18µM
CCCS(=O)(=O)c1csc(C(=O)OC)c1N	none (no result: TDP1 block)
Cc1cccc(C(=O)N2CCCCCC2)c1[N+](=O)[O-]	TDP1 cell CPT inconclusive, DT40 TDP1 no CPT inconclusive
C#CCn1cc(/C=C2\NC(=O)NC2=O)c2ccccc21	TDP1 cell CPT inconclusive, DT40 TDP1 no CPT inconclusive (no result: TDP1 block)
Cc1c(C)n(C(=O)CN2CCN(c3ccccn3)CC2)c2ccccc12	TDP1 cell CPT inconclusive, DT40 TDP1 no CPT 12µM
Cc1ccc(S(=O)(=O)c2ccc(NC(=O)c3c(F)cccc3F)cc2)cc1	DT40 TDP1 no CPT inconclusive (no result: TDP1 block)
CN(C)c1ccc(C=O)c(Oc2ccccc2)c1	DT40 TDP1 no CPT inconclusive (no result: uPA generation, TDP1 block, miR-21 reporter)
CCOc1ccc(-c2cn3ccccc3n2)cc1	TDP1 cell CPT inconclusive, DT40 TDP1 no CPT inconclusive
c1ccn2cc(-c3ccc4c(c3)OCCO4)nc2c1	uPA generation 3.2µM, TDP1 cell CPT 15µM, DT40 TDP1 no CPT 26µM
Fc1ccc(-c2cn3ccccc3n2)cc1	uPA generation 10µM
Cc1ccc2nc(-c3ccc4c(c3)OCCO4)cn2c1	TDP1 cell CPT 1.3µM, miR-21 reporter inconclusive, DT40 TDP1 no CPT 1.6µM
O=C(O)c1ccc(NS(=O)(=O)c2cc(C(=O)O)ccc2Br)cc1	none
Nc1ccc(C(=O)O)cc1S(=O)(=O)O	TDP1 cell CPT inconclusive, DT40 TDP1 no CPT 5.8µM
COCCN(CCOC)c1ncc(Cl)c(C(=O)c2c(C)cc3ccccn23)n1	TDP1 cell CPT inconclusive, DT40 TDP1 no CPT 21µM
N#C/C(=C\c1ccccc1)C(=O)NNS(=O)(=O)c1ccc(Br)cc1	none (no result: miR-21 reporter)
COc1ccc(C2Nc3ccccc3C(=O)N2Cc2ccccc2)cc1 (stereo not drawn)	uPA generation inconclusive, TDP1 cell CPT inconclusive, DT40 TDP1 no CPT inconclusive (no result: TDP1 block)
COc1ccc([C@@H]2[C@@H](C)N(c3ccccc3)c3ccccc3C(=O)N2Cc2ccccc2)cc1	TDP1 cell CPT inconclusive, DT40 TDP1 no CPT 16µM (no result: uPA generation, TDP1 block, miR-21 reporter)
CC[C@@H](C)CCCCC(=O)N[C@@H](CCNCS(=O)(=O)O)C(=O)N[C@H](C(=O)N[C@@H](CCNCS(=O)(=O)O)C(=O)N[C@H]1CCNC(=O)[C@H]([C@@H](C)O)NC(=O)[C@H](CCNCS(=O)(=O)O)NC(=O)[C@H](CCNCS(=O)(=O)O)NC(=O)[C@H](CC(C)C)NC(=O)[C@@H](CC(C)C)NC(=O)[C@H](CCNCS(=O)(=O)O)NC1=O)[C@@H](C)O	TDP1 cell CPT inconclusive, DT40 TDP1 no CPT 9.4µM (no result: uPA generation, TDP1 block, miR-21 reporter)
O=C1CCC2(CCCC2)c2ccccc21	none (no result: uPA generation, TDP1 block, miR-21 reporter)
Cn1c(=O)c2c(nc(SCCN3CCOCC3)n2Cc2ccccc2Cl)n(C)c1=O	TDP1 cell CPT inconclusive, DT40 TDP1 no CPT inconclusive
Cc1ccc(Cn2c(SCCN3CCCCC3)nc3c2c(=O)n(C)c(=O)n3C)cc1	TDP1 cell CPT inconclusive, DT40 TDP1 no CPT 15µM
Cn1c(=O)c2c(nc(SCCN3CCCCC3)n2Cc2ccccc2)n(C)c1=O	TDP1 cell CPT inconclusive (no result: uPA generation)
Cn1c(=O)c2c(nc(SCCN3CCOCC3)n2Cc2cccc3ccccc23)n(C)c1=O	TDP1 cell CPT 8.2µM, DT40 TDP1 no CPT 5.2µM (no result: uPA generation)
COc1cccc(C(=O)NCCS(=O)(=O)NCCCc2ccccc2)c1	none (no result: miR-21 reporter)
COc1ccc(Cl)cc1C(=O)NCCCSc1ccccc1	DT40 TDP1 no CPT inconclusive
O=C1C(=O)N(C2CCCC2)C(=O)N1Cc1c(F)cccc1Cl	none
COc1ccccc1C1CCCN1Cc1nc(-c2ccc(C)s2)oc1C (stereo not drawn)	TDP1 cell CPT 18µM, DT40 TDP1 no CPT inconclusive
CCOc1cc(/C=C2\SC(=N)N(c3nonc3N)C2=O)ccc1OCCN1CCOCC1	TDP1 cell CPT 13µM, DT40 TDP1 no CPT 21µM
CC(NCC(O)COc1ccc2ccccc2c1)c1ccccc1 (stereo not drawn)	TDP1 cell CPT 16µM, DT40 TDP1 no CPT 16µM (no result: TDP1 block)
Cc1cc(OCC(O)CNC(C)c2ccccc2)ccc1C(C)C (stereo not drawn)	TDP1 cell CPT 23µM, miR-21 reporter inconclusive, DT40 TDP1 no CPT 23µM (no result: TDP1 block)
